Laboratory results taken from patent US11274090B2, “P300/CBP HAT inhibitors” (Constellation Pharmaceuticals, Inc., priority 2018, dated 2022).
pIC50: −log10 of the molar value.

Protein sequences, listed by entry. Tags and fused reporters are not part of them. Residues count along the entry.
UniProt Q09472, 1287-1666 limits assumed: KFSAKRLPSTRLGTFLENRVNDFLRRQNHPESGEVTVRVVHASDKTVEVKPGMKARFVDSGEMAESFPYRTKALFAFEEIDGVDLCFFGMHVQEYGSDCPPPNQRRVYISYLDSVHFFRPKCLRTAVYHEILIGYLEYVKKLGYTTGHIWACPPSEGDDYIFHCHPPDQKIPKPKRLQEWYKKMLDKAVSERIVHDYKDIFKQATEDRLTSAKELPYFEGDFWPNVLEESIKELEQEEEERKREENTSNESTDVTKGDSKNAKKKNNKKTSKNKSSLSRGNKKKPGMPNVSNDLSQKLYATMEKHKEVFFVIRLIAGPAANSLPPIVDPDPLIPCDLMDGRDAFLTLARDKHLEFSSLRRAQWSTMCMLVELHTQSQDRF

Target: p300 HAT domain (residues 1287-1666) (Homo sapiens (Human), UniProt Q09472)
Assay: p300 HAT SPA assay (scintillation proximity assay, acetylation of biotinylated H3(1-21) peptide)
Assay type: biochemical
Settings: read-out: P300 HAT SPA IC50, average of at least 2 replicate titrations

| Compound | pIC50 |
| --- | --- |
| CC(=O)N1CCC(c2ccc(NC(=O)C(NCCc3ccc(Cl)cc3)c3ccccc3)cc2)CC1 (single isomer, unassigned) [21 Isomer 1] | 5.46 |
| CC(=O)N1CCC(c2ccc(NC(=O)C(NCCc3ccc(Cl)cc3)c3ccccc3)cc2)CC1 (single isomer, unassigned) [21 Isomer 2] | < 5.30 |
